{
  "sequences": {"note": "Sequences of proteins named here, by UniProt entry; tags and fusion partners are left off.", "UniProt O15379, whole entry": "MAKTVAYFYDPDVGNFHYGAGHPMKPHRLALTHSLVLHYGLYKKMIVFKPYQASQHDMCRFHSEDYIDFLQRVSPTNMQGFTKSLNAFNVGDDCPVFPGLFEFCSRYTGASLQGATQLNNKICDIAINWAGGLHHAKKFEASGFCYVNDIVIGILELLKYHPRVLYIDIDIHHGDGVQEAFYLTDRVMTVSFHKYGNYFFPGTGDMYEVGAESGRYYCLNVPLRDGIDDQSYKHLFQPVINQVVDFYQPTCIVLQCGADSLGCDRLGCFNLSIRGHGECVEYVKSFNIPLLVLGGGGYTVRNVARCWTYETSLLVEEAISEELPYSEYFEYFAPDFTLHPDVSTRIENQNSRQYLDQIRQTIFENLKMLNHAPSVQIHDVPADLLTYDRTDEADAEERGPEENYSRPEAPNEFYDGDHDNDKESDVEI"},
  "source": "PubChem BioAssay AID2718",
  "about": "(Broad Institute, 2010)",
  "note": "The entries are a selection whose mix differs from that of the whole data set. Active and inactive are the calls of the source. No stated cut-off is given here; in the data, active means inhibition above about 26% (passing the limit was not always enough); inconclusive means no clear call, values can overlap the other calls.",
  "data": [
    {"target": "Histone deacetylase 3 (Homo sapiens) (UniProt O15379)", "assay": "inhibition of human HDAC3 enzyme activity – biochemical, fluorescence, cell-free homogeneous, primary screen (AID 2718)", "details": "recombinant HDAC3, fluorogenic peptide/trypsin coupled, at 8.3 µM, stronger effect = higher value", "values": [
      {"smiles": "COc1cc(OC)c(C(=O)NCC2(N(C)C)CCCCC2)cc1OC", "inhibition": "inactive: 2.87%"},
      {"smiles": "O=C(NCC1(N2CCOCC2)CCCCC1)c1cc(F)c(F)cc1Cl", "inhibition": "inactive: -1.45%"},
      {"smiles": "CC(C)c1ccc(NC2CCN(C(=O)OC(C)(C)C)CC2)cc1", "inhibition": "inactive: 8.34%"},
      {"smiles": "COc1ccc(CN(CCCl)CCCl)cc1Cl", "inhibition": "inactive: 11.2%"},
      {"smiles": "CN(C)c1cccc(C(=O)NCC2(N3CCCCC3)CCCCC2)c1", "inhibition": "inactive: -0.513%"},
      {"smiles": "CCCOc1ccc(C(=O)NCC2(N(C)C)CCCCC2)cc1OC", "inhibition": "inactive: -1.62%"},
      {"smiles": "CN1CCC(Nc2cccc(F)c2)CC1", "inhibition": "inactive: -22.4%"},
      {"smiles": "O=C(NCC1(N2CCCCC2)CCCCC1)c1cncc(Br)c1", "inhibition": "inactive: 3.26%"},
      {"smiles": "CCN1CCC(Nc2ccc(Cl)cc2)CC1", "inhibition": "inactive: -2.7%"},
      {"smiles": "N#CC1(Nc2ccccc2)CCN(CCc2ccccc2)CC1", "inhibition": "inactive: -2.15%"},
      {"smiles": "O=C(NCC1(N2CCCCC2)CCCCC1)c1ccc(OC(F)F)cc1", "inhibition": "inactive: 2.5%"},
      {"smiles": "COc1cc(C(=O)NCC2(N3CCCCC3)CCCCC2)ccc1OC(F)F", "inhibition": "inactive: -0.577%"},
      {"smiles": "O=C(NCC1(N2CCOCC2)CCCCC1)c1cc(=O)[nH]c2ccccc12", "inhibition": "inactive: 4.89%"},
      {"smiles": "CN1CCN(CCOC(=O)C(O)(c2ccccc2)c2ccccc2)CC1", "inhibition": "inactive: 1.81%"},
      {"smiles": "COc1ccc(NC2CCN(C(=O)OC(C)(C)C)CC2)cc1", "inhibition": "inactive: 2.21%"},
      {"smiles": "O=C(NCC1(N2CCCCC2)CCCCC1)c1cccc(C(F)(F)F)c1", "inhibition": "inactive: 2.92%"},
      {"smiles": "O=C(NCC1(N2CCCCC2)CCCCC1)c1ccc(F)cc1", "inhibition": "inactive: 1.15%"},
      {"smiles": "COc1ccc(NC2CCN(CCc3ccccc3)CC2)c(OC)c1", "inhibition": "inactive: -4.13%"},
      {"smiles": "CCOC(=O)N1CCC(Nc2ccc(F)cc2)CC1", "inhibition": "inactive: -12.2%"},
      {"smiles": "CCOc1ccc(C)cc1CN(CCCl)CCCl", "inhibition": "inactive: 0.781%"},
      {"smiles": "CCOC(=O)N1CCC(Nc2cccc(C)c2)CC1", "inhibition": "inactive: -3.47%"},
      {"smiles": "COc1cc(C(=O)NCC2(N(C)C)CCCCC2)ccc1OC(F)F", "inhibition": "inactive: -1.31%"},
      {"smiles": "Cc1ccc(OCC(C)C)c(CN(CCCl)CCCl)c1", "inhibition": "inactive: -1.27%"},
      {"smiles": "CSc1ccccc1C(=O)NCC1(N2CCCCC2)CCCCC1", "inhibition": "inactive: 6.41%"},
      {"smiles": "COc1ccc(C(=O)NCC2(N3CCCCC3)CCCCC2)cc1", "inhibition": "inactive: -0.418%"},
      {"smiles": "CC(C)(C)OC(=O)N1CCC(N(C(=O)c2ccccc2)c2ccc(F)cc2)CC1", "inhibition": "inactive: -9.08%"},
      {"smiles": "COc1ccc(C(=O)NCC2(N3CCCCC3)CCCCC2)c(OC)c1OC", "inhibition": "inactive: 2.07%"},
      {"smiles": "O=C(NCC1(N2CCCCC2)CCCCC1)c1ccc(=O)[nH]c1", "inhibition": "inactive: 4.45%"},
      {"smiles": "O=C(NCC1(N2CCCCC2)CCCCC1)c1cccs1", "inhibition": "inactive: 2.04%"},
      {"smiles": "O=C(NCC1(N2CCCCC2)CCCCC1)c1ccc(Cl)s1", "inhibition": "inactive: 2.84%"},
      {"smiles": "N#CC1(Nc2ccccc2)CCN(Cc2ccccc2)CC1", "inhibition": "inactive: 0.453%"},
      {"smiles": "O=C(OC1CN2CCC1CC2)C1c2ccccc2Oc2ccccc21", "note": "(stereo not drawn)", "inhibition": "inactive: 0.367%"},
      {"smiles": "COc1ccc(Cl)cc1C(=O)NCC1(N2CCOCC2)CCCCC1", "inhibition": "inactive: -4.53%"},
      {"smiles": "CCOC(=O)N1CCC(Nc2ccc(OC)cc2)CC1", "inhibition": "inactive: 2.59%"},
      {"smiles": "O=C(NCC1(N2CCCCC2)CCCCC1)c1ccc(Cl)nc1", "inhibition": "inactive: 1.74%"},
      {"smiles": "Cc1cc(C)cc(N(C(=O)c2ccccc2)C2CCN(C(=O)OC(C)(C)C)CC2)c1", "inhibition": "inactive: 2.5%"},
      {"smiles": "O=C(NCC1(N2CCOCC2)CCCCC1)c1cc2ccccc2o1", "inhibition": "inactive: -1.51%"},
      {"smiles": "CC(C)(C)OC(=O)N1CCC(Nc2ccccc2)CC1", "inhibition": "inactive: 1.35%"},
      {"smiles": "O=C(O)C1(Nc2ccccc2)CCN(Cc2ccccc2)CC1", "inhibition": "inactive: -1.69%"},
      {"smiles": "CCCOc1ccc(C(=O)NCC2(N(C)C)CCCCC2)cc1", "inhibition": "inactive: 0.557%"},
      {"smiles": "CCOc1ncccc1C(=O)NCC1(N2CCOCC2)CCCCC1", "inhibition": "inactive: 2.47%"},
      {"smiles": "CN1CCC(Nc2ccc(F)c(Cl)c2)CC1", "inhibition": "inactive: -3.25%"},
      {"smiles": "CN1CCC(Nc2ccc(Cl)cc2)CC1", "inhibition": "inactive: 0.358%"},
      {"smiles": "CCCOc1ccc(C)cc1CN(CCCl)CCCl", "inhibition": "inactive: -6.17%"},
      {"smiles": "COc1cc(OC)cc(C(=O)NCC2(N3CCOCC3)CCCCC2)c1", "inhibition": "inactive: 1.25%"},
      {"smiles": "COc1cccc(C(=O)N(c2cc(C)cc(C)c2)C2CCN(C(=O)OC(C)(C)C)CC2)c1", "inhibition": "inactive: 3.12%"},
      {"smiles": "CCC(CO)(C(=O)OC1CN2CCC1CC2)c1ccccc1", "note": "(stereo not drawn)", "inhibition": "inactive: 1.23%"},
      {"smiles": "Cc1ccc(C(=O)NCC2(N3CCCCC3)CCCCC2)o1", "inhibition": "inactive: 5.4%"},
      {"smiles": "Fc1ccccc1NC1CCN(Cc2ccccc2)CC1", "inhibition": "inactive: -1.7%"},
      {"smiles": "COc1cc(OC)cc(C(=O)NCC2(N3CCCCC3)CCCCC2)c1", "inhibition": "inactive: 0.554%"},
      {"smiles": "O=C(NCC1(N2CCCCC2)CCCCC1)c1ccco1", "inhibition": "inactive: -3.17%"},
      {"smiles": "CN(C)c1ccc(C(=O)NCC2(N3CCCCC3)CCCCC2)cc1", "inhibition": "inactive: 4.84%"},
      {"smiles": "CCN1CCC(Nc2cccc(F)c2)CC1", "inhibition": "inactive: -0.51%"},
      {"smiles": "CC(C)(C)OC(=O)N1CCC(N(C(=O)c2ccccc2)c2ccc(Cl)cc2)CC1", "inhibition": "inactive: 9.73%"},
      {"smiles": "c1ccc(CN2CCC(Nc3ccccc3)CC2)cc1", "inhibition": "inactive: -1.97%"},
      {"smiles": "CCCN1CCC(Nc2cc(OC)cc(OC)c2)CC1", "inhibition": "inactive: -4.17%"},
      {"smiles": "COc1ccc(C(=O)NCC2(N3CCOCC3)CCCCC2)cc1OC", "inhibition": "inactive: -2.5%"},
      {"smiles": "COc1cc(C(=O)NCC2(N3CCOCC3)CCCCC2)cc(OC)c1C", "inhibition": "inactive: -1.52%"},
      {"smiles": "O=C(NCC1(N2CCOCC2)CCCCC1)c1cc(Br)ccc1Cl", "inhibition": "inactive: -0.758%"},
      {"smiles": "CCc1cc(C(=O)NCC2(N3CCCCC3)CCCCC2)sc1C", "inhibition": "inactive: -0.856%"},
      {"smiles": "O=C(OC1CN2CCC1CC2)C1c2ccccc2C=Cc2ccccc21", "note": "(stereo not drawn)", "inhibition": "inactive: -15.7%"},
      {"smiles": "CCOC(=O)N1CCC(Nc2ccc(C)cc2)CC1", "inhibition": "inactive: -6.41%"},
      {"smiles": "N/C(=N\\O)c1c(N)no[n+]1[O-]", "inhibition": "inactive: 0.00308%"}
    ]}
  ]
}
